From patent publication US20140017673A1, “METHOD FOR ENUMERATING EUKARYOTIC CELL MICRONUCLEI WITH AN EMPHASIS ON SIMULTANEOUSLY ACQUIRING CYTOTOXICITY AND MODE OF ACTION INFORMATION” (priority 2012, published 2014)
Read-outs that look alike come from different tables or passages of the source.

Tested on: TK6 cells
Conditions: 24 to 27 hrs

CN(N=O)C(=N)N[N+](=O)[O-]
Avg. % EMA+ (0.003125 μg/ml): 4.3% | Avg. % M (0.003125 μg/ml): 1.0% | Avg. % MN (0.003125 μg/ml): 2.0% | Avg. % RS (0.003125 μg/ml): 78.3% | Avg. M as % G2/M (0.003125 μg/ml): 1.9% | Avg. % EMA+ (0.00625 μg/ml): 5.9% | Avg. % M (0.00625 μg/ml): 0.6% | Avg. % MN (0.00625 μg/ml): 4.4% | Avg. % RS (0.00625 μg/ml): 69.7% | Avg. M as % G2/M (0.00625 μg/ml): 1.1% | Avg. % EMA+ (0.0125 μg/ml): 7.3% | Avg. % M (0.0125 μg/ml): 0.4% | Avg. % MN (0.0125 μg/ml): 8.9% | Avg. % RS (0.0125 μg/ml): 59.1% | Avg. M as % G2/M (0.0125 μg/ml): 0.9% | Avg. % EMA+ (0.05 μg/ml): 11.0% | Avg. % M (0.05 μg/ml): 0.4% | Avg. % MN (0.05 μg/ml): 9.1% | Avg. % RS (0.05 μg/ml): 44.1% | Avg. M as % G2/M (0.05 μg/ml): 1.1% | Avg. % EMA+ ([…]): 10.3% | Avg. % M ([…]): 0.4% | Avg. % MN ([…]): 8.3% | Avg. % RS ([…]): 48.6% | Avg. M as % G2/M ([…]): 0.9%
